Results: US7196110B2, “N-substituted tricyclic 3-aminopyrazoles as inhibitors for the treatment of cell proliferative disorders” (Janssen Phamaceutica N.V., priority 2002, dated 2007)

Protein sequences, listed by entry. Tags and fused reporters are not part of them. Lines headed by an entry give the natural chain unless they say otherwise; changes in a name come on top.
UniProt P09619: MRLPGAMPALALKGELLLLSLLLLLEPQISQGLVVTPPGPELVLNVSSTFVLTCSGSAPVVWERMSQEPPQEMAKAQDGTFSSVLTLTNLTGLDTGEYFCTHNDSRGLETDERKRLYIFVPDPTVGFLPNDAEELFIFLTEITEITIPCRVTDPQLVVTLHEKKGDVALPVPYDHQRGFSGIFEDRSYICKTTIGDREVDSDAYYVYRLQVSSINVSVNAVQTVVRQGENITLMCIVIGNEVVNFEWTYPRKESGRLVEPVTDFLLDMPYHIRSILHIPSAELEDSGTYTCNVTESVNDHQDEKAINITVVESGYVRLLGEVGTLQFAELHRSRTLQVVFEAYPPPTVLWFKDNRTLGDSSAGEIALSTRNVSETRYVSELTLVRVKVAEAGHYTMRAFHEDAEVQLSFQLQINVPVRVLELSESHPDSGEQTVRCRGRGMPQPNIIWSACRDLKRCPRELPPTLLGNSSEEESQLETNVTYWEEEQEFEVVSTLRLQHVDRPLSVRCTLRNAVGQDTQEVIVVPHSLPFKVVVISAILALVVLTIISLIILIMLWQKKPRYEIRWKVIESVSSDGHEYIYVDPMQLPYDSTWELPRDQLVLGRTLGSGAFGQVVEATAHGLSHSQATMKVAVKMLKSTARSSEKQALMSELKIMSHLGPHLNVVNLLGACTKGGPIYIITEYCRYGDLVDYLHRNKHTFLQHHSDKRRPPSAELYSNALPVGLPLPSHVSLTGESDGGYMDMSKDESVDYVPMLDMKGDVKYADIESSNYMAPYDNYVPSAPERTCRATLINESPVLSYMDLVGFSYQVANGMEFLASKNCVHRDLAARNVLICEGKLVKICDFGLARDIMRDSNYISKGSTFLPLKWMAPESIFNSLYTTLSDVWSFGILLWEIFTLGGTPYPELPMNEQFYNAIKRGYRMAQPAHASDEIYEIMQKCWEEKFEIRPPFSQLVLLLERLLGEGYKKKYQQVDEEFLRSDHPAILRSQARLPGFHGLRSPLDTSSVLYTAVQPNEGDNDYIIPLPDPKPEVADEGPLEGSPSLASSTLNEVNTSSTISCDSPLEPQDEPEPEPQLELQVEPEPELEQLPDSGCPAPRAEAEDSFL

Key:
[1] = tested on: human umbilical vein endothelial cells (HUVEC); test: Anti-cell proliferation in normal cells in the absence of PDGF stimulation (BrdU incorporation); format: cell-based; settings: LSGS, PDGF-BB independent
[2] = tested on: LoVo (colon); test: Anti-cell proliferation in tumor cells (14C-thymidine incorporation), LoVo; format: cell-based; settings: Homo sapiens
[3] = target: T1, PDGF-receptor beta enzyme comprising the tyrosine kinase domain (Homo sapiens, UniProt P09619); test: Inhibition of PDGF-receptor kinase activity (cell-free, PLC1 peptide, 33P Flashplate); format: biochemical; settings: PDGF-R kinase activity
T1 construct: from amino acid 545 to 1106 of GenBank Access NO: AAA36427

[4] = tested on: H460 (lung); test: Anti-cell proliferation in tumor cells (14C-thymidine incorporation), H460; format: cell-based; settings: Homo sapiens, NCI-H460
[5] = tested on: AsPC1 (pancreas); test: Anti-cell proliferation in tumor cells (14C-thymidine incorporation), AsPC1; format: cell-based; settings: Homo sapiens
[6] = tested on: PC3 (prostate); test: Anti-cell proliferation in tumor cells (14C-thymidine incorporation), PC3; format: cell-based; settings: Homo sapiens, PC-3
[7] = tested on: human coronary artery smooth muscle cells (HCASMC), PDGF-BB induced; test: Anti-cell proliferation in normal cells in the presence of PDGF stimulation (14C-thymidine incorporation); format: cell-based
[8] = tested on: A375 (melanoma); test: Anti-cell proliferation in tumor cells (14C-thymidine incorporation), A375; format: cell-based; settings: Homo sapiens, A-375

Row | IC50 [5] [nM] | IC50 [6] [nM] | IC50 [8] [nM] | Structure (SMILES) | IC50 [1] [nM] | IC50 [2] [nM] | IC50 [3] [nM] | IC50 [4] [nM] | IC50 [7] [nM]
1 |  |  |  | COc1ccc2c(c1)-c1n[nH]c(Nc3ccccc3)c1C2 [Compound 39, (7-Methoxy-2,4-dihydro-indeno[1,2-c]pyrazol-3-yl)-phenyl-amine] | 15 | 10500 | 18 | 9950 | 
2 | 427 | 48 | 1580 | COc1cc2c(cc1OC)-c1n[nH]c(Nc3cccc(Cl)c3)c1C2 [Compound 4, (3-Chloro-phenyl)-(6,7-dimethoxy-2,4-dihydro-indeno[1,2-c]pyrazol-3-yl)-amine] | 1730 | 12 | 3 |  | 268
